Test results from patent US20230000869A1, “NOVEL ALK2 INHIBITORS AND METHODS FOR INHIBITING BMP SIGNALING” (The Brigham and Women's Hospital, Inc., priority 2017, published 2023).

The chains behind the UniProt entries cited, without tags or fusion partners. Residues count along the entry.
UniProt P37172, 21-509 limits assumed: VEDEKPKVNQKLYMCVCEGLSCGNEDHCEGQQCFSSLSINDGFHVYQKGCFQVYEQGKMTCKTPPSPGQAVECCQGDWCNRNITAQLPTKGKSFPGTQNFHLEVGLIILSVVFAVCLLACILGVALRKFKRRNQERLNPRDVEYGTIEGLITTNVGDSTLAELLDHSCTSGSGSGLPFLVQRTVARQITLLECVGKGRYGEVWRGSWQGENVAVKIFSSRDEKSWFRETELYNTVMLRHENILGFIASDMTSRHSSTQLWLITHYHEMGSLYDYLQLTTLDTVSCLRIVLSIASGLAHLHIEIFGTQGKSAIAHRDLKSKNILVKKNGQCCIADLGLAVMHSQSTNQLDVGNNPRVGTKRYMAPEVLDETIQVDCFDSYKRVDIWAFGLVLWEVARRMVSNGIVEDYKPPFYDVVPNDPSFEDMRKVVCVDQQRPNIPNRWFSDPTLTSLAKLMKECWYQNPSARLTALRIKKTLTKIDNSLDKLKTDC

Tests used:
TGFβ = experiment: Luciferase reporter gene assay for TGFβ activity (HEK293T SBE-Luc SMAD2/3 reporter, TGFβ agonist); settings: read-out: TGFβ IC50, TGFβ 5 ng/mL
ALK2 = ALK2 (Mus musculus, UniProt P37172); experiment: Luciferase reporter gene assay for ALK2 activity (C2C12 BRE-Luc SMAD1/5/8 reporter, BMP6 agonist); settings: read-out: ALK2 IC50, BMP6 50 ng/mL

**Q.** Which results are given for COc1cc2c(-c3cnn4cc(N5CCC(N(C)CCN(C)C)CC5)cnc34)ccnc2cc1F?
**A.** IC50 (TGFβ): 453 nM; IC50 (ALK2): 35 nM
